In PMC3262757 (Chemistry Central Journal, 2011):
pIC50: −log10 of the molar value.

System: JNK2
Format: cell-based

- pIC50: ~5.82
SMILES: CCOc1nc(NC(=O)Cc2cc(OC)ccc2OC)cc(N)c1C#N [compound 1, N-(4-Amino-5-cyano-6-ethoxypyridin-2-yl)-2-(2,5-dimethoxyphenyl)acetamide]
